The target in the assay is T1, TGR5 (G protein-coupled bile acid receptor) (Mus musculus, UniProt Q80SS6).
T1 construct: gene Gpbar1
Nature of the assay: cell-based.

Chains of the proteins cited; added tags and fusions are not shown. Lines headed by an entry give the natural chain unless they say otherwise; changes in a name come on top.
UniProt Q80SS6: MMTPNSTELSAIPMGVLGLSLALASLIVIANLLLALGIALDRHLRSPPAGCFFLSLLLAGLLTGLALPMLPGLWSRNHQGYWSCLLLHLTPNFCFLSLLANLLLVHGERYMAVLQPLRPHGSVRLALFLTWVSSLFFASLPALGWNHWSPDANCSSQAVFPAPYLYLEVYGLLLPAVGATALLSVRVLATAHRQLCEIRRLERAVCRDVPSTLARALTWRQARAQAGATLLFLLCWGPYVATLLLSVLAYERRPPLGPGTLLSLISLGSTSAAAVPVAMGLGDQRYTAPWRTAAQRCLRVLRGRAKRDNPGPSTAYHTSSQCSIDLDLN

The text below walks through data of PMC4217307, “Release of GLP-1 and PYY in response to the activation of G protein-coupled bile acid receptor TGR5 is mediated by Epac/PLC-ε pathway and modulated by endogenous H2S” (Frontiers in Physiology, 2014).

The term EC50 denotes the concentration at which the effect is half-maximal. A higher EC50 goes with weaker potency. On to `CC1(C)CC[C@]2(C(=O)O)CC[C@]3(C)C(=CC[C@@H]4[C@@]5(C)CC[C@H](O)C(C)(C)[C@@H]5CC[C@]43C)[C@@H]2C1` [OA, oleanolic acid], for which the EC50 was 700 ± 100 nM.
